Where two headings read alike, the source gives them in different places.
Assays:
[1] = pK calculated from monosubstituted compounds assuming additivity of substituent effects; details: pK (calc.)−pK (obs.)
[2] = cited from earlier work
[3] = pKA calculated from pKP of the corresponding phenol by linear relation eq (8)

Molecule | ΔpK(1) Dinitrophenol [1] | other results
O=[N+]([O-])c1cccc(O)c1[N+](=O)[O-] | 0.65 | –
O=[N+]([O-])c1ccc([N+](=O)[O-])c(O)c1 | .40 | –
O=[N+]([O-])c1cccc([N+](=O)[O-])c1O | – | pK ([2]; observed value): 3.713
2,5-xylidene | – | pK [2]: 4.57; discrepancy between observed and predicted pK, eq (8) [3]: 0.95
O=[N+]([O-])c1ccc(O)cc1[N+](=O)[O-] | .13 | –

Reference: publication PMC5323086, “Ionization Constants of the Six Dichloroanilines and the Six Dichlorophenols in Aqueous Solution at 25 °C” (Journal of Research of the National Bureau of Standards. …, 1964)
